In article PMC10941285, “Symmetrical Bispyridinium Compounds Act as Open Channel Blockers of Cation-Selective Ion Channels” (2024):
Values joined by “and” are separate entries in the source; they are usually repeats but may differ in a detail not shown here. Equal entries are not always repeated.

Protein sequences, listed by entry. Tags and fused reporters are not part of them. Lines headed by an entry give the natural chain unless they say otherwise; changes in a name come on top. Chains listed by the source or under a name are the forms on record and can include a tag or linker. Residues count along the entry.
UniProt P23979, with tags, fused parts or gaps limits assumed: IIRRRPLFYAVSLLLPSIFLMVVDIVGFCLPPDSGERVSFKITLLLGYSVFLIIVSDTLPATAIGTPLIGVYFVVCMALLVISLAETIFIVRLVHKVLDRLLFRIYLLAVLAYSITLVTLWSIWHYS
UniProt P23979, 24-489 S297A/D298E/T299I limits assumed: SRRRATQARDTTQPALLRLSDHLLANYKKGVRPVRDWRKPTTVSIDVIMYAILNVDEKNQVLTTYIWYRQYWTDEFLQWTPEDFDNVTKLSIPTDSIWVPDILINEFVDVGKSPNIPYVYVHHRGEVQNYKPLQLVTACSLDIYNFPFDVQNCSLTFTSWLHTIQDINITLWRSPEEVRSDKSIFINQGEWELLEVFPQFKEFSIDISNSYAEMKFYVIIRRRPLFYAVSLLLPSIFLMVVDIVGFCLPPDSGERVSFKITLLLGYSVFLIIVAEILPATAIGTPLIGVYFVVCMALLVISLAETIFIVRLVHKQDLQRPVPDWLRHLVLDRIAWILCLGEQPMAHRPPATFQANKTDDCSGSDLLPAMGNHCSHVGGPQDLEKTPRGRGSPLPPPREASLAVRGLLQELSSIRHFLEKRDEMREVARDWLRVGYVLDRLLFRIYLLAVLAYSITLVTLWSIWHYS
UniProt P23979, 24-489 limits assumed: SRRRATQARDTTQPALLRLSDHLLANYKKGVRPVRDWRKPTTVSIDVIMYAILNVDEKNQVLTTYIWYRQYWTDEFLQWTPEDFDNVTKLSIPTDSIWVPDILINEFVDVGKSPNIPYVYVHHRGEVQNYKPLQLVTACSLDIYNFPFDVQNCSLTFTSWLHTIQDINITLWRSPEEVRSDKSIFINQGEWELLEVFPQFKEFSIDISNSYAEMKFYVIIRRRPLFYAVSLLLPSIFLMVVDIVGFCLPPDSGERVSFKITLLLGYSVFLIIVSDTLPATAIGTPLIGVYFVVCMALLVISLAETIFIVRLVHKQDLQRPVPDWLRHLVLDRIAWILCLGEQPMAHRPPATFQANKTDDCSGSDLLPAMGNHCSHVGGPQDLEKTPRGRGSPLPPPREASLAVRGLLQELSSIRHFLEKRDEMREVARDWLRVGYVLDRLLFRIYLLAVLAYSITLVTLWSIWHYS
UniProt P36544, with tags, fused parts or gaps limits assumed: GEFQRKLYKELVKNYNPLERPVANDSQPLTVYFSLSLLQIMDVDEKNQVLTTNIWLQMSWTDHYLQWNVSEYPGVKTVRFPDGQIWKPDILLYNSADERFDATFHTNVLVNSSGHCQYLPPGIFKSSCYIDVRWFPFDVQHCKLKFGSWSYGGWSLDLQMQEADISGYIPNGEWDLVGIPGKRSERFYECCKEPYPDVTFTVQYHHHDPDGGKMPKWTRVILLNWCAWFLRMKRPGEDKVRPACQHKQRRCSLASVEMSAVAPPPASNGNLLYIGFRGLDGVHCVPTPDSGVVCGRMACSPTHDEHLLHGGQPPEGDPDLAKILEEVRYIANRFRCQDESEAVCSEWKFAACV
UniProt P36544, with tags, fused parts or gaps E260A/E281R/INS259P/V274T limits assumed: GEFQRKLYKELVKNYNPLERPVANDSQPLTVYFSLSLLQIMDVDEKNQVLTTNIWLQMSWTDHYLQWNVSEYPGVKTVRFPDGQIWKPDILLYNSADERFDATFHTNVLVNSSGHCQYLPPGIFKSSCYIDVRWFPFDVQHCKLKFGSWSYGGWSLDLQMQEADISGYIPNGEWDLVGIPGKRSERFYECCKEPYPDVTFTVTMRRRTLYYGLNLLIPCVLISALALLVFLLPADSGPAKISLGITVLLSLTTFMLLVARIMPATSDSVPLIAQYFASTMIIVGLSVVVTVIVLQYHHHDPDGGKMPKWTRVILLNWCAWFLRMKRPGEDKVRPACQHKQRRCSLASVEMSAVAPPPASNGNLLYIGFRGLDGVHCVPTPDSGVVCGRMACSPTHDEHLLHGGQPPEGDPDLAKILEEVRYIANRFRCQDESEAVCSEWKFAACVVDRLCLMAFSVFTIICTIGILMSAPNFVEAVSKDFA
UniProt P36544, 23-502 limits assumed: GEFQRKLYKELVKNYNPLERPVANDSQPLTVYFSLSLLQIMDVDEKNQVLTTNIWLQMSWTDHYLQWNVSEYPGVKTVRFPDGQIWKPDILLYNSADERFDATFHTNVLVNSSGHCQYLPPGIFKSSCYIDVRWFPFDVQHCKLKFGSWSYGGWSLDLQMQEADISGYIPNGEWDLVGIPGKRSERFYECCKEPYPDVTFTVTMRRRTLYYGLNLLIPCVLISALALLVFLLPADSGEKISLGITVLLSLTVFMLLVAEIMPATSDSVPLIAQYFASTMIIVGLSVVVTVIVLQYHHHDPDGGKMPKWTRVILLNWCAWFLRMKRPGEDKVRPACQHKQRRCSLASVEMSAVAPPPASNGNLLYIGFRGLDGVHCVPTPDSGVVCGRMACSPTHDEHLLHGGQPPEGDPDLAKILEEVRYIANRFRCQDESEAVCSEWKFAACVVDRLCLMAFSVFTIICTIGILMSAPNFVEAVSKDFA
UniProt P36544, 23-502 Y210F/A280S/E281D/I282T limits assumed: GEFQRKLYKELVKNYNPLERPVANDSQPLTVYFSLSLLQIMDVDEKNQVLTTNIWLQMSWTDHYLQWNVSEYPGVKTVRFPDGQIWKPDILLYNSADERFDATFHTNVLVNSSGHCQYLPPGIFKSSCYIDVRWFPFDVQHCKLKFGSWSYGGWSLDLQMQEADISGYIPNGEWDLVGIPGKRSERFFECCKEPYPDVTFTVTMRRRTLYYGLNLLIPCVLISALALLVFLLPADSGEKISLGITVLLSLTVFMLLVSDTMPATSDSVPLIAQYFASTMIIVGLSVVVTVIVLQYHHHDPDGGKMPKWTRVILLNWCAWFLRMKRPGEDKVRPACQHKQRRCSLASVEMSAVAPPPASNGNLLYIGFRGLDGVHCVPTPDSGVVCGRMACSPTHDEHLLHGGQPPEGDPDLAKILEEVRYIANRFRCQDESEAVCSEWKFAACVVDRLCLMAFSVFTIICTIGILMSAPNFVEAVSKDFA
UniProt P36544, 23-502 M276L limits assumed: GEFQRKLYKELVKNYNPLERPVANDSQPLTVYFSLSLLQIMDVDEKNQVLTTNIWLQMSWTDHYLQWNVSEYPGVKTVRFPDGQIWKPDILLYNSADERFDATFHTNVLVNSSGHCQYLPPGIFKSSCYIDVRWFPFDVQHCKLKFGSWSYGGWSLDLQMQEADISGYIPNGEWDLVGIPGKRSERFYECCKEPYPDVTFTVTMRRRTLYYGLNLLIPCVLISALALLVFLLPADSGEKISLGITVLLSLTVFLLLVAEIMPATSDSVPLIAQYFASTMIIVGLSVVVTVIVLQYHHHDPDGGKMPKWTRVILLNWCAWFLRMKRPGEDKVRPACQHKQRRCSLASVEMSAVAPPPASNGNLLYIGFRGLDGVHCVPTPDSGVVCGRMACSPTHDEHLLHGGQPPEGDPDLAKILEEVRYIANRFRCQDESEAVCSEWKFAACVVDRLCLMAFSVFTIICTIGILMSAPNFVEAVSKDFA
UniProt P36544, with tags, fused parts or gaps E260A/INS259P/V274T limits assumed: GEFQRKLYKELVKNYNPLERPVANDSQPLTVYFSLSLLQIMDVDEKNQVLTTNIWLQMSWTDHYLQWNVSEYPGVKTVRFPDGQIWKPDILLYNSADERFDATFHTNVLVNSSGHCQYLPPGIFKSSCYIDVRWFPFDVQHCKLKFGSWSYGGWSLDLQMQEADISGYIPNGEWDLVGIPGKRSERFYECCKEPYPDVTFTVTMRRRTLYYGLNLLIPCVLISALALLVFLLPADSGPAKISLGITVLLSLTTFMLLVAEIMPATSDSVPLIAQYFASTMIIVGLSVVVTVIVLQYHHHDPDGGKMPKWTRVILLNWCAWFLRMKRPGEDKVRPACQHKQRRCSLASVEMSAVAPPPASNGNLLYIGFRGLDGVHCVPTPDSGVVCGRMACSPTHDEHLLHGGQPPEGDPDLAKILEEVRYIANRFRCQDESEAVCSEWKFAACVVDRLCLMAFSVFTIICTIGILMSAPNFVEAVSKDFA
UniProt P36544, 23-502 A280S/E281D/I282T limits assumed: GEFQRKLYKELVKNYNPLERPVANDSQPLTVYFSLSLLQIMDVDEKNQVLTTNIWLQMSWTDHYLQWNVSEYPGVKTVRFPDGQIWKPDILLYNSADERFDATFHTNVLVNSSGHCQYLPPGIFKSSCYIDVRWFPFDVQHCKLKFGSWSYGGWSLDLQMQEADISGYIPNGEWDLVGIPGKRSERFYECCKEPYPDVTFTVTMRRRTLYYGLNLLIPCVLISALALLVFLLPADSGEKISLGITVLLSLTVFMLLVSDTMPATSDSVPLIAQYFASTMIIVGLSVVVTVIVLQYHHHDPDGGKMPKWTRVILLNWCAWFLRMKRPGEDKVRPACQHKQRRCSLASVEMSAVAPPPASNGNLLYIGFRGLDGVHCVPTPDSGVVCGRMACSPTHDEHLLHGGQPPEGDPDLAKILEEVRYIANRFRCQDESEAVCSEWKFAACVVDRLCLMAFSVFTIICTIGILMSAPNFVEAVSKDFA
UniProt P11230, 24-501 limits assumed: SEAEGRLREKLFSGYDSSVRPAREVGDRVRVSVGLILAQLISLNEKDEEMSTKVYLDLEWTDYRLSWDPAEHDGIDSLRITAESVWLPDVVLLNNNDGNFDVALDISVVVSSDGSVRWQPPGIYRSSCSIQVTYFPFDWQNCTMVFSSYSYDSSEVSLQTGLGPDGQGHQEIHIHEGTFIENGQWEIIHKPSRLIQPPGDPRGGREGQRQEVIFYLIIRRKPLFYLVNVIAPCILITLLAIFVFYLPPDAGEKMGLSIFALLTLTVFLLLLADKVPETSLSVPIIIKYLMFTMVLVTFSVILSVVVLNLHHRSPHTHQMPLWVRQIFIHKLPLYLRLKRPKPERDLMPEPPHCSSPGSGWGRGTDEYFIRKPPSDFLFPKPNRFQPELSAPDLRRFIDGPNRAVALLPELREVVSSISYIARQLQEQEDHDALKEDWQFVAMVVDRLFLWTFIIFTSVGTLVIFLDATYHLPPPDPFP
UniProt Q99572: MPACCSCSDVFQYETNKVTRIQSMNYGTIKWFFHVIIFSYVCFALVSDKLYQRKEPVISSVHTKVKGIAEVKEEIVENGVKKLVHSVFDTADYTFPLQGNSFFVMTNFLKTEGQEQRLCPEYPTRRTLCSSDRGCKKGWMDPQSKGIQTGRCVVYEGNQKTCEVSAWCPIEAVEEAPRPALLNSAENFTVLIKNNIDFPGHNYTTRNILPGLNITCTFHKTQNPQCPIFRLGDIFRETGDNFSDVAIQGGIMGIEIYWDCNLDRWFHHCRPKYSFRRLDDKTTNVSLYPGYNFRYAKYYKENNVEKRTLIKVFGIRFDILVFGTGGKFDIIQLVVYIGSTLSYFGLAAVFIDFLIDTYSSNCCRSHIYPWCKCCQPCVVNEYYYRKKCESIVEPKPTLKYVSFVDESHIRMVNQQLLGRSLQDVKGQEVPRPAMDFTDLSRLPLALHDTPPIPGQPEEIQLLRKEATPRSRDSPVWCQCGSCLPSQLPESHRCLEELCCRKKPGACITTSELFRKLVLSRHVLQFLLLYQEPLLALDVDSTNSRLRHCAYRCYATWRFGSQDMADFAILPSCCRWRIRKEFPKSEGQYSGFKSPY
UniProt P17787, 26-502 limits assumed: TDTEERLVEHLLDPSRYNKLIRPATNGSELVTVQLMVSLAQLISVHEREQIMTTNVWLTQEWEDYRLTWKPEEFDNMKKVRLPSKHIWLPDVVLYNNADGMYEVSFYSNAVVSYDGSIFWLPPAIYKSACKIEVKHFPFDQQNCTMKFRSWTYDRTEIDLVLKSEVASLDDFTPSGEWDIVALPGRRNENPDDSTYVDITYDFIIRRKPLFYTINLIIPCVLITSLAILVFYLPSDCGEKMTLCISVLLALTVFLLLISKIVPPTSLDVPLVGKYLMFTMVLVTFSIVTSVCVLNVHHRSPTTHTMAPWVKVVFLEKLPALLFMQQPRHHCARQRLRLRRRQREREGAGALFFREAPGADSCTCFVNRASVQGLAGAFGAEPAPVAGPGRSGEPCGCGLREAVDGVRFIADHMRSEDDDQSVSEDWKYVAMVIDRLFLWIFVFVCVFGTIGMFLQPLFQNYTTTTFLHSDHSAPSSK
UniProt P43681, 27-627 limits assumed: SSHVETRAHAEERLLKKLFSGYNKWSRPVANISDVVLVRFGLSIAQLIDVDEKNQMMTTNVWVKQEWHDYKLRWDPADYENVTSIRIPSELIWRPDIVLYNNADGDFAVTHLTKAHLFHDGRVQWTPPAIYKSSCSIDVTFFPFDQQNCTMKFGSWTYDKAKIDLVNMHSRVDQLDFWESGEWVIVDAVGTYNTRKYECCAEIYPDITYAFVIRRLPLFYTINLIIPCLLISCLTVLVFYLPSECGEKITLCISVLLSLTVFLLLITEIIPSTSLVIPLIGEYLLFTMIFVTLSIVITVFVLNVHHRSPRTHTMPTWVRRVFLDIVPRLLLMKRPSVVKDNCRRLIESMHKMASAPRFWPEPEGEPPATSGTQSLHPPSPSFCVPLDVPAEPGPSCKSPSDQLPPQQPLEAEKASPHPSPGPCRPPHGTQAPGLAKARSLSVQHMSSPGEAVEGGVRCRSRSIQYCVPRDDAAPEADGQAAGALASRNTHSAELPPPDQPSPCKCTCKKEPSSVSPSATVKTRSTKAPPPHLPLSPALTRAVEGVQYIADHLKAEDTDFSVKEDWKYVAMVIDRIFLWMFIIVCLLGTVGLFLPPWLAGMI

Key:
[1] = target: α7^4TM5HT3A chimera (Homo sapiens; Mus musculus, UniProt P23979+P36544); experiment: TEVC (ACh dose response and inhibition by compounds) at α7^4TM5HT3A chimera in oocytes; conditions: 1 μM PTM0022, 10 μM MB327, 30 μM QX-314
[2] = target: α7^Anion E258R (Homo sapiens, UniProt P36544, E260A/E281R/INS259P/V274T); experiment: TEVC (ACh dose response and inhibition by compounds) at α7^Anion E258R in oocytes; conditions: 1 μM PTM0022
[3] = target: T1, human (α1)2β1εδ nAChR (Homo sapiens, UniProt P02708+P11230+Q04844+Q07001); experiment: TEVC of ACh-activated currents with preincubation and co-application of compounds, muscle-type nAChR expressed in Xenopus laevis oocytes; conditions: for voltage-dependency of inhibition at muscle-type nAChR: −100 mV compared with −50 mV
[4] = target: T2, α7 nAChR (Homo sapiens, UniProt P36544); experiment: ACh dose–response curves (TEVC, oocytes) without and in the presence of BPCs, α7
[5] = target: α7 257-259SDT, Y210F (Homo sapiens, UniProt P36544, A280S/E281D/I282T/Y210F); experiment: TEVC inhibition by PTM0022 at α7 257-259SDT, Y210F mutant in oocytes; conditions: 1 μM PTM0022
[6] = target: T2, α7 nAChR; experiment: TEVC of ACh-activated currents with preincubation and co-application of compounds, α7 nAChR expressed in Xenopus laevis oocytes; conditions: for mean response at α7 (normalized to current before compound): EC80 agonist; for IC50 ratio relative to MB327, α7: IC50(MB327)/IC50(compound); for Hill coefficient nH of inhibition, α7: dose-inhibition curve, −70 mV; for pIC50 (M) at α7: log-transformed IC50 of Table 1; for voltage-dependency of inhibition at α7: −100 mV compared with −50 mV, MLA 3 nM; for effect on α7 ACh-activated currents: tested concentrations up to 30 μM
[7] = target: T2, α7 nAChR; experiment: α7 resensitization after 1 min desensitization with 1 mM ACh (TEVC, oocytes); conditions: 1 min 1 mM ACh; 3 μM PTM0022 or 10 μM PNU120596 co-applied
[8] = target: muscle-type nAChR α1 ST, β1 A272S (Homo sapiens, UniProt P02708+P11230+Q04844+Q07001, A295S/L283T/V281S); experiment: TEVC inhibition by PTM0022 at muscle-type nAChR mutant in oocytes; conditions: 1 μM PTM0022
[9] = target: PNU120596-potentiated α7 nAChR (Homo sapiens, UniProt P36544); experiment: Co-application of BPCs or QX-314 upon preapplication of 10 μM PNU120596 and 100 μM ACh (TEVC, oocytes); conditions: concentrations producing 70–90% block at α7 in the absence of PNU120596
[10] = target: human α7 M253L nAChR (Homo sapiens, UniProt P36544, M276L); experiment: TEVC dose-inhibition / potentiation at α7 PAM binding site mutant M253L in oocytes; conditions: for IC50(α7)/IC50(M253L): fold potency increase on the M253L mutation
[11] = target: NaV1.4 (Rattus norvegicus, UniProt P15390); experiment: TEVC of sodium peak currents of NaV1.4 in oocytes; conditions: 10 μM
[12] = target: T1, human (α1)2β1εδ nAChR; experiment: ACh dose–response curves (TEVC, oocytes) without and in the presence of BPCs, muscle-type
[13] = target: 5HT3A receptor (SDT into AEI) (Mus musculus, UniProt P23979, D298E/S297A/T299I); experiment: TEVC inhibition by PTM0022 at 5HT3A AEI mutant in oocytes; conditions: 1 μM PTM0022
[14] = target: 5HT3A receptor (Mus musculus, UniProt P23979); experiment: TEVC inhibition of 5HT-evoked currents at 5HT3A receptor in oocytes; conditions: −50 and −100 mV
[15] = target: P2X7 receptor (Homo sapiens, UniProt Q99572); experiment: TEVC inhibition at P2X7 receptor in oocytes; conditions: −50 and −100 mV
[16] = target: α4β2 nAChR (Homo sapiens, UniProt P17787+P43681); experiment: TEVC inhibition at α4β2 nAChR in oocytes; conditions: 10 μM, −50 and −100 mV
[17] = target: α7^Anion (P236 insertion, E237A, V251T) (Homo sapiens, UniProt P36544, E260A/INS259P/V274T); experiment: TEVC (ACh dose response and inhibition by compounds) at α7 triple mutant α7^Anion in oocytes; conditions: 1 μM PTM0022, 10 μM MB327, 30 μM QX-314
[18] = target: α7 SDT (A257S, E258D, I259T) (Homo sapiens, UniProt P36544, A280S/E281D/I282T); experiment: TEVC (ACh dose response and inhibition by PTM0022) at α7 SDT mutant in oocytes; conditions: 1 μM PTM0022, compared with α7
[19] = target: T2, α7 nAChR; experiment: Manual whole-cell patch-clamp of CHO cells stably expressing human α7 nAChRs; conditions: 30 µM, −60 mV

CC(C)(C)c1cc[n+](CCC[n+]2ccc(C(C)(C)C)c(-c3ccccc3)c2)cc1-c1ccccc1
potency at α7^4TM5HT3A chimera (α7 ICD introduced) [1]: did not result in a substantial potency increase
inhibition at α7^Anion E258R [2]: completely abolished
Hill coefficient nH of inhibition, (α1)2β1εδ ([3]; dose-inhibition curve, −70 mV): –0.84
voltage-dependency of inhibition at muscle-type nAChR [3]: even more pronounced
nH of ACh in the presence of BPC, α7 ([4]; +0.3 μM of the BPC): 1.46
inhibition at α7 257-259SDT, Y210F [5]: even further reduced
mean response at α7 (normalized to current before compound) ([6]; 1 μM compound): 9.3%
IC50 ratio relative to MB327, α7 [6]: 17.50
Hill coefficient nH of inhibition, α7 [6]: –1.07
pIC50 (M) at α7 [6]: -6.70 M
voltage-dependency of inhibition at α7 [6]: significantly stronger inhibition
recovery/resensitization of desensitized α7 nAChR [7]: no current increase was observed
inhibition at muscle-type nAChR α1 ST, β1 A272S [8]: no change in inhibition
block of the PNU120596-potentiated α7 current [9]: fast and almost complete block
nH of inhibition at α7 M253L [10]: –1.76
IC50(α7)/IC50(M253L) [10]: 0.67
effect on NaV1.4 sodium peak currents [11]: not affected
nH of ACh in the presence of BPC, (α1)2β1εδ ([12]; +1 μM of the BPC): 1.06
inhibition at 5HT3A with reverse substitutions (SDT into AEI) [13]: not reconstitute α7-like properties
inhibition of 5HT3A, voltage-dependency [14]: voltage-dependent inhibition
inhibition of P2X7 receptor [15]: slightly inhibited but in a voltage-independent way
inhibition of α4β2 nAChR [16]: did not inhibit
inhibition at α7^Anion [17]: significantly reduced but not eliminated
inhibition at α7 SDT (A257S, E258D, I259T) [18]: reduces the potency of 1 μM PTM0022 already significantly

COc1ccc[n+](CCC[n+]2cccc(OC)c2)c1
pIC50 (M) at α7 [6]: > -4.50 M
effect on α7 ACh-activated currents [6]: no effect

CC[N+](CC)(CC)CC(=O)Nc1c(C)cccc1C
potency at α7^4TM5HT3A chimera (α7 ICD introduced) [1]: did not result in a substantial potency increase
mean response at α7 (normalized to current before compound) ([6]; 30 μM compound): 9.6%
IC50 ratio relative to MB327, α7 [6]: 0.70
Hill coefficient nH of inhibition, α7 [6]: –0.89
pIC50 (M) at α7 [6]: -5.30 M
voltage-dependency of inhibition at α7 [6]: significantly stronger inhibition of ACh-evoked responses at −100 mV
recovery/resensitization of desensitized α7 nAChR [7]: no current increase was observed
block of the PNU120596-potentiated α7 current [9]: unable to block at all
inhibition at α7^Anion [17]: Neither QX-314 nor MB327 were able to inhibit this mutant

CN(C)c1ccc[n+](CCC[n+]2cccc(N(C)C)c2)c1
nH of ACh in the presence of BPC, α7 ([4]; +10 μM of the BPC): 1.93
IC50 ratio relative to MB327, α7 [6]: 0.50
Hill coefficient nH of inhibition, α7 [6]: –1.04
pIC50 (M) at α7 [6]: -5.16 M

CC(C)(C)c1cccc[n+]1CCC[n+]1ccccc1C(C)(C)C
nH of ACh in the presence of BPC, α7 ([4]; +3 μM of the BPC): 1.57
IC50 ratio relative to MB327, α7 [6]: 0.74
Hill coefficient nH of inhibition, α7 [6]: –1.14
pIC50 (M) at α7 [6]: -5.33 M

COc1cc[n+](CCC[n+]2ccc(OC)cc2)cc1
pIC50 (M) at α7 [6]: > -4.50 M
effect on α7 ACh-activated currents [6]: no effect

CCN1C[C@]2(COC(=O)c3ccccc3N3C(=O)C[C@H](C)C3=O)CC[C@H](OC)[C@@]34[C@@H]5C[C@H]6[C@H](OC)[C@@H]5[C@](O)(C[C@@H]6OC)[C@@](O)([C@@H](OC)[C@H]23)[C@@H]14
voltage-dependency of inhibition at α7 [6]: did not show an altered response

CC(C)(C)c1ccc[n+](CCC[n+]2cccc(C(C)(C)C)c2)c1
IC50 ratio relative to MB327, α7 [6]: 1.10
Hill coefficient nH of inhibition, α7 [6]: –1.23
pIC50 (M) at α7 [6]: -5.50 M

COc1cccc[n+]1CCC[n+]1ccccc1OC
IC50 ratio relative to MB327, α7 [6]: 0.09
Hill coefficient nH of inhibition, α7 [6]: –0.91
pIC50 (M) at α7 [6]: ~ -4.30 M

CCOC(=O)c1c[n+](CCC[n+]2ccc(C(C)(C)C)c(C(=O)OCC)c2)ccc1C(C)(C)C
nH of ACh in the presence of BPC, α7 ([4]; +3 μM of the BPC): 1.53
IC50 ratio relative to MB327, α7 [6]: 7.14
Hill coefficient nH of inhibition, α7 [6]: –0.94
pIC50 (M) at α7 [6]: -6.31 M

CC(C)(C)c1cc[n+](CCC[n+]2ccc(C(C)(C)C)cc2)cc1
potency at α7^4TM5HT3A chimera (α7 ICD introduced) [1]: significantly increased potency
voltage-dependency of inhibition at muscle-type nAChR [3]: even more pronounced
nH of ACh in the presence of BPC, α7 ([4]; +3 μM of the BPC): 1.66
mean response at α7 (normalized to current before compound) ([6]; 10 μM compound): 36.3%
IC50 ratio relative to MB327, α7 [6]: 1.00
Hill coefficient nH of inhibition, α7 [6]: –0.84
voltage-dependency of inhibition at α7 [6]: significantly stronger inhibition
effect on ACh (100 µM)-evoked currents in CHO cells [19]: inhibits
recovery/resensitization of desensitized α7 nAChR [7]: no current increase was observed
block of the PNU120596-potentiated α7 current [9]: quickly reversible inhibition, although to a much smaller extent
nH of inhibition at α7 M253L [10]: –0.98
IC50(α7)/IC50(M253L) [10]: 4 and 4.17
nH of ACh in the presence of BPC, (α1)2β1εδ ([12]; +10 μM of the BPC): 1.10
inhibition at α7^Anion [17]: Neither QX-314 nor MB327 were able to inhibit this mutant
